Reference: ChEMBL document CHEMBL3745681, “Synthesis, Biological Evaluation, and Utility of Fluorescent Ligands Targeting the μ-Opioid Receptor” (2015)

By UniProt entry, the sequences of proteins in these tests, tags left out.
UniProt P35372, whole entry: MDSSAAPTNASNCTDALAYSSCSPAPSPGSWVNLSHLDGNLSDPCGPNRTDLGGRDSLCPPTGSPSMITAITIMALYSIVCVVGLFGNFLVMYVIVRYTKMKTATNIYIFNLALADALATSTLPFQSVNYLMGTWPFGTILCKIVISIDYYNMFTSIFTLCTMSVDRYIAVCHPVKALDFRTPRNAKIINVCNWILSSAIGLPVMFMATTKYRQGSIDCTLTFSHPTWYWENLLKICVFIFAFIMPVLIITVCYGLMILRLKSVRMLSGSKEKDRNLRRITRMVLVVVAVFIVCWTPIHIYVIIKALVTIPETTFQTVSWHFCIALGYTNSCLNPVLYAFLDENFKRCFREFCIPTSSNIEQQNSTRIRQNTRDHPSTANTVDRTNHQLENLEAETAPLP
UniProt P41143, whole entry: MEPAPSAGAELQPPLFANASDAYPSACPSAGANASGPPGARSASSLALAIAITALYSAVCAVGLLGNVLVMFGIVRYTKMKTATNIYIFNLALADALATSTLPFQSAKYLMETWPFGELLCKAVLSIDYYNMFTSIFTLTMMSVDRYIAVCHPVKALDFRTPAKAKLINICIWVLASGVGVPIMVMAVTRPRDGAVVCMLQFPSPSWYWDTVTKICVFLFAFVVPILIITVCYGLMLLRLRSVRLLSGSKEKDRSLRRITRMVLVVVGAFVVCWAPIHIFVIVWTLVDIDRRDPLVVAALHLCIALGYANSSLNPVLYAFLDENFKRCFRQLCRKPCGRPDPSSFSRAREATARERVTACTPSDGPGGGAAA
UniProt P41145, whole entry: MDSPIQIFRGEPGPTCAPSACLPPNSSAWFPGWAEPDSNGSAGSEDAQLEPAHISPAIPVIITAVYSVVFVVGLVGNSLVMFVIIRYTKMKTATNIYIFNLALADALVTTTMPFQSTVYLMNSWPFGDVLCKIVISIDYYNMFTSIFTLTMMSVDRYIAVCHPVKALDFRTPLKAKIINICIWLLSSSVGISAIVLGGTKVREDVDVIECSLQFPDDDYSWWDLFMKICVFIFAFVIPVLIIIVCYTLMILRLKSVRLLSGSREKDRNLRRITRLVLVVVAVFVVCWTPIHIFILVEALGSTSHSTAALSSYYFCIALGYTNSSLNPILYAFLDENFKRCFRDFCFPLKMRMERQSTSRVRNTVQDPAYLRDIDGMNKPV

Experiments:
Mu-type opioid receptor [1] = biological target: T1, Mu-type opioid receptor (Homo sapiens, UniProt P35372); assay: Antagonist activity at human MOR expressed in CHO-FlpIn cell membranes assessed as inhibition of DAMGO-induced ERK phosphorylation after 30 mins by Gaddum-Schild plot analysis
[2] = biological target: Delta-type opioid receptor (Homo sapiens, UniProt P41143); assay: Antagonist activity at human DOR expressed in CHO-FlpIn cell membranes assessed as inhibition of SNC80-induced ERK phosphorylation after 30 mins by Gaddum-Schild plot analysis
[3] = biological target: Kappa-type opioid receptor (Homo sapiens, UniProt P41145); assay: Antagonist activity at human KOR expressed in CHO-FlpIn cell membranes assessed as inhibition of ICI199441-induced ERK phosphorylation after 30 mins by Gaddum-Schild plot analysis
Mu-type opioid receptor [4] = biological target: T1, Mu-type opioid receptor; assay: Displacement of [3H]diprenorphine from human MOR expressed in CHO-FlpIn cell membranes after 1 hr by liquid scintillation counting analysis

## CO[C@]12CC[C@@]3(C[C@@H]1C(=O)NCCCCCCNC(=O)CCCCCNC(=O)COc1ccc(/C=C/C4=[N+]5C(=Cc6ccc(-c7cccs7)n6[B-]5(F)F)C=C4)cc1)[C@H]1Cc4ccc(O)c5c4[C@@]3(CCN1C)[C@H]2O5
Mu-type opioid receptor [1]
  pA2: 8.37
[2]
  pA2: < 5
[3]
  pA2: 6.72

## CO[C@]12C=C[C@@]3([C@@H]4C(=O)N(CCCCCCNC(=O)OC(C)(C)C)C(=O)[C@@H]41)[C@H]1Cc4ccc(O)c5c4[C@@]3(CCN1C)[C@H]2O5
Mu-type opioid receptor [4]
  pKi: 6.58

## CCN1/C(=C/C=C/C=C/C2=[N+](CCCCCC(=O)NCCCCCCNC(=O)[C@H]3C[C@@]45CC[C@]3(OC)[C@@H]3Oc6c(O)ccc7c6[C@@]34CCN(C)[C@@H]5C7)c3ccc(S(=O)(=O)O)cc3C2(C)C)C(C)(C)c2cc(S(=O)(=O)O)ccc21
Mu-type opioid receptor [1]
  pA2: 7.31
[2]
  pA2: < 5
[3]
  pA2: 6.3

## CO[C@]12CC[C@@]3(C[C@@H]1C(=O)NCCCCCCNC(=O)OC(C)(C)C)[C@H]1Cc4ccc(O)c5c4[C@@]3(CCN1C)[C@H]2O5
Mu-type opioid receptor [4]
  pKi: 8.66

## COc1nnc(OCCCC(=O)NCCCCCCNC(=O)[C@H]2C[C@@]34CC[C@]2(OC)[C@@H]2Oc5c(O)ccc6c5[C@@]23CCN(C)[C@@H]4C6)nn1
Mu-type opioid receptor [1]
  pA2: 8.01
[2]
  pA2: < 5
[3]
  pA2: 6.37

## CO[C@]12C=C[C@@]3([C@@H]4C(=O)N(CCCCCCN)C(=O)[C@@H]41)[C@H]1Cc4ccc(O)c5c4[C@@]3(CCN1C)[C@H]2O5.Cl.Cl
Mu-type opioid receptor [4]
  pKi: 5.69

## CO[C@]12C=C[C@@]3(C[C@@H]1C(=O)NCCCCCCNC(=O)OC(C)(C)C)[C@H]1Cc4ccc(O)c5c4[C@@]3(CCN1C)[C@H]2O5
Mu-type opioid receptor [4]
  pKi: 8.13

## CO[C@]12CC[C@@]3(C[C@@H]1C(=O)NCCCCCCN)[C@H]1Cc4ccc(O)c5c4[C@@]3(CCN1C)[C@H]2O5.Cl.Cl
Mu-type opioid receptor [4]
  pKi: 6.97

## CO[C@]12CC[C@@]3(C[C@@H]1C(=O)NCCCCCCNC(=O)CCN1C(=O)c4cccc5c(N)ccc(c45)C1=O)[C@H]1Cc4ccc(O)c5c4[C@@]3(CCN1C)[C@H]2O5
Mu-type opioid receptor [1]
  pA2: 7.87
[2]
  pA2: < 5
[3]
  pA2: 6.91
